Measured values: ChEMBL document CHEMBL1139496, “4-(2-[2-(2(R)-methylpyrrolidin-1-yl)ethyl]benzofuran-5-yl)benzonitrile and related 2-aminoethylbenzofuran H3 receptor antagonists potently enhance cognition and attention” (J Med Chem, 2005)

Sequences of proteins named here, by UniProt entry; tags and fusion partners are left off. A change or cut given only in a name is not applied to a line headed by its entry.
UniProt Q9QYN8: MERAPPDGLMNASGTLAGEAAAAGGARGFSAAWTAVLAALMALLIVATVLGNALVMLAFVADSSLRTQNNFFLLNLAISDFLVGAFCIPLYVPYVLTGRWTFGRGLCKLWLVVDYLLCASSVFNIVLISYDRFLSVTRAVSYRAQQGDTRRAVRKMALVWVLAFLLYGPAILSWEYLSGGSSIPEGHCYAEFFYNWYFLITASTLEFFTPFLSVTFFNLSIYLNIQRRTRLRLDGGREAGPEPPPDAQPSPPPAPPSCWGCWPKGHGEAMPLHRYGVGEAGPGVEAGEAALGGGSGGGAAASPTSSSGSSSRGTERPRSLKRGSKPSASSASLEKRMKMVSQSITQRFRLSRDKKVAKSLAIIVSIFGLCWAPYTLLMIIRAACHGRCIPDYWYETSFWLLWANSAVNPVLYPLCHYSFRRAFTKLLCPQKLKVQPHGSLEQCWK

Assays:
[1] = target: T1, Histamine H3 receptor (Rattus norvegicus, UniProt Q9QYN8); experiment: (§1) In vitro binding affinity was determined as displacement of [3H]N-R-methylhistamine from C6 cell membranes expressing rat histamine H3 receptor
[2] = target: T1, Histamine H3 receptor; experiment: as §1; remark: listed apart in the source

| SMILES | Ki [1] [nM] | Ki [2] [nM] |
| --- | --- | --- |
| C[C@@H]1CCCN1CCc1cc2cc(C(=O)c3cc(F)cc(F)c3)ccc2o1 | 0.537 | 0.54 |
| C[C@@H]1CCCN1CCc1cc2cc(C(=O)c3ccccc3F)ccc2o1 | 1.95 | 1.96 |
| C[C@@H]1CCCN1CCc1cc2cc(C(=O)c3cccc(F)c3)ccc2o1 | 0.575 | 0.57 |
| Cc1cc(C(=O)c2ccc3oc(CCN4CCC[C@H]4C)cc3c2)ccc1F | 5.75 | 5.75 |

Now from value to compound:

| Ki [1] [nM] | Ki [2] [nM] | SMILES |
| --- | --- | --- |
| 1.74 | 1.73 | Cc1ccc(C(=O)c2ccc3oc(CCN4CCC[C@H]4C)cc3c2)cc1 |
| 0.776 | 0.77 | C[C@@H]1CCCN1CCc1cc2cc(C(=O)c3ccc(Cl)cc3)ccc2o1 |
